Reference: ChEMBL document CHEMBL1122933, “Drug glycosides: potential prodrugs for colon-specific drug delivery” (J Med Chem, 1985)

Test: Partition coefficient (logP)
Format: physicochemical
Details: octanol/water
Outline: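 Apparent 1-octanol/0.01 M phosphate buffer (pH 7.0) partition at 37 °C used mutually pre-saturated phases in equal volumes, agitated 30 min. Glycosides started at 10 mM in buffer and free steroids at 10 mM in octanol. Aqueous-phase concentration was read by UV: 239 nm for dexamethasone and fludrocortisone compounds, 242 nm for prednisolone and hydrocortisone compounds.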

SMILES	logP
CC1CC2C3CCC4=CC(=O)C=CC4(C)[C@@]3(F)C(O)CC2(C)[C@@]1(O)C(=O)CO[C@@H]1O[C@@H](CO)[C@@H](O)[C@H](O)[C@H]1O (some centres not stated)	0.49
CC1CC2C3CCC4=CC(=O)C=CC4(C)[C@@]3(F)C(O)CC2(C)[C@@]1(O)C(=O)CO[C@@H]1O[C@H](CO)[C@@H](O)[C@H](O)[C@H]1O (some centres not stated)	0.59
